{
  "sequences": {"note": "Protein sequences, listed by entry. Tags and fused reporters are not part of them.", "UniProt P08482, whole entry Y381A": "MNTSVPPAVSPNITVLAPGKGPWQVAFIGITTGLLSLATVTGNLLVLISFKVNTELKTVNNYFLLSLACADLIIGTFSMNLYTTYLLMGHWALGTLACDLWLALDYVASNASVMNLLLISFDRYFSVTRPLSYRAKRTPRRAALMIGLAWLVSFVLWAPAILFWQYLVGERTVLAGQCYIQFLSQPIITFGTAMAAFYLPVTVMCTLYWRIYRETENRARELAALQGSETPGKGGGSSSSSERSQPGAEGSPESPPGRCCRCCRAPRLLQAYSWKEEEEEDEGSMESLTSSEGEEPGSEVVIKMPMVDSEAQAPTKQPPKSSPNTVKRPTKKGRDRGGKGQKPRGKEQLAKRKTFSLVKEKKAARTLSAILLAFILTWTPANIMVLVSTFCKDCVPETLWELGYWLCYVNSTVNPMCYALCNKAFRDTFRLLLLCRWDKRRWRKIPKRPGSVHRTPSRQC"},
  "source": "paper PMC2577155",
  "about": "(The Journal of neuroscience : the official journal of the …, 2008)",
  "key": {"rM1 Y381A": {"molecular_target": "rM1 Y381A (Rattus norvegicus, UniProt P08482, Y381A)", "settings": "at concentrations that fully activated the wt rM1 receptor"}, "rM1": {"molecular_target": "rM1 (Rattus norvegicus, UniProt P08482)", "settings": "atropine 1-10 nM (CCh) or 0.3-3.0 nM (TBPB)"}},
  "data": [
    {"smiles": "C[N+](C)(C)CCOC(N)=O", "note": "[CCh, carbamylcholine chloride, reference compound]", "values": [
      {"measurement": "effect at rM1 Y381A", "setting": "rM1 Y381A", "result": "without effect"},
      {"measurement": "interaction of the agonist with the orthosteric antagonist atropine", "setting": "rM1", "result": "competitively antagonized"}
    ]}
  ]
}
